Assay results: patent US5424451A, “Process for preparing aminoalkylcarbamic esters of eseroline” (priority 1992, dated 1995)
pIC50: −log10 of the molar value.

Sequences of proteins named here, by UniProt entry; tags and fusion partners are left off. Residues count along the entry.
UniProt O42275, 24-633: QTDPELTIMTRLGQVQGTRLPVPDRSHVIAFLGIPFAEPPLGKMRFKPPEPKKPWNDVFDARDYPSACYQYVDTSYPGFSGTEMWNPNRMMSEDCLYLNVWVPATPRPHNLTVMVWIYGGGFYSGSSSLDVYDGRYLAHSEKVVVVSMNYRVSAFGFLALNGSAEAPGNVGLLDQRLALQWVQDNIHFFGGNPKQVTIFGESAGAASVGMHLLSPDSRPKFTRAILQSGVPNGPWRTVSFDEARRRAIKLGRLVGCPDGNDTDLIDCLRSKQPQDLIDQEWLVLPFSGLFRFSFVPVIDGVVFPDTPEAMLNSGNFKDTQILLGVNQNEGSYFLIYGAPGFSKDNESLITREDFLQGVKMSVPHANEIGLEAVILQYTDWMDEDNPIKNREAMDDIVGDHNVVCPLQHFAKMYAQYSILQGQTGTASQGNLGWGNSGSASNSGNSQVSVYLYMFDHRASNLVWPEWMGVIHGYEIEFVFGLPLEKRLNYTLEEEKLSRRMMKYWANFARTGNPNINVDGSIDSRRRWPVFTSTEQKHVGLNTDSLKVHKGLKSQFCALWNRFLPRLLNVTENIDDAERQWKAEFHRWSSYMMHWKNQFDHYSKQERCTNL

Molecular target: T1, acetylcholinesterase from electric eel (Electrophorus electricus, UniProt O42275)
T1 construct: purchased Sigma Chemical; host or cells: electric eel
Assay: biochemical
Settings: Cholinesterase Inhibition IC50, AChE E.eel

How did the pIC50 turn out when `CNC(=O)Oc1ccc2c(c1)[C@]1(C)CCN(C)[C@@H]1N2C` [ESERINE, physostigmine] was run?
The pIC50 was 6.82.
